Values quoted from earlier work as cited in patent US20250186613A1 (The Trustees of the University of Pennsylvania, priority 2022, published 2025).

Target: T1, GLP-2 receptor (Homo sapiens, UniProt O95838)
T1 sequence (O95838 1-553): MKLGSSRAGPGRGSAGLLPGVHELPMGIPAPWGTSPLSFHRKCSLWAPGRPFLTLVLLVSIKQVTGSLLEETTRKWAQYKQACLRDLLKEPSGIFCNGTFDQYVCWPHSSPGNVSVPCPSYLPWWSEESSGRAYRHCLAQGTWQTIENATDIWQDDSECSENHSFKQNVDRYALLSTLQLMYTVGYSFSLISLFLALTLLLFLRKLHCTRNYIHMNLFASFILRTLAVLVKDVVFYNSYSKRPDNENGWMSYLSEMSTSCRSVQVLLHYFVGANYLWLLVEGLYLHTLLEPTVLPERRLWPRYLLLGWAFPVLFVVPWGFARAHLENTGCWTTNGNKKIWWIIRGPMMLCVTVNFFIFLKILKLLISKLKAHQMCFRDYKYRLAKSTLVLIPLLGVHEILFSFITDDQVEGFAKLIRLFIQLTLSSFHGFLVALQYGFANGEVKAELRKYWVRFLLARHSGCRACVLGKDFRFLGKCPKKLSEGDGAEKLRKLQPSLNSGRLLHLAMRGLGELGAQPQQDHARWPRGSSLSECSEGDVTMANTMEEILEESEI
Details: relative to GLP2; cited from earlier work

SMILES: CC[C@H](C)[C@H](NC(=O)[C@H](Cc1ccccc1)NC(=O)[C@H](CC(=O)O)NC(=O)[C@H](CCCNC(=N)N)NC(=O)[C@H](C)NC(=O)[C@H](C)NC(=O)[C@H](CC(C)C)NC(=O)[C@H](CC(N)=O)NC(=O)[C@H](CC(=O)O)NC(=O)[C@H](CC(C)C)NC(=O)[C@@H](NC(=O)[C@@H](NC(=O)[C@H](CC(N)=O)NC(=O)[C@H](CCSC)NC(=O)[C@H](CCC(=O)O)NC(=O)[C@H](CC(=O)O)NC(=O)[C@H](CO)NC(=O)[C@H](Cc1ccccc1)NC(=O)[C@H](CO)NC(=O)CNC(=O)[C@H](CC(=O)O)NC(=O)CNC(=O)[C@@H](N)Cc1c[nH]cn1)[C@@H](C)O)[C@@H](C)CC)C(=O)N[C@@H](CC(N)=O)C(=O)N[C@@H](Cc1c[nH]c2ccccc12)C(=O)N[C@@H](CC(C)C)C(=O)N[C@H](C(=O)N[C@@H](CCC(N)=O)C(=O)N[C@H](C(=O)N[C@@H](CCCCN)C(=O)N[C@H](C(=O)N[C@H](C(=O)N[C@@H](CC(=O)O)C(=O)O)[C@@H](C)O)[C@@H](C)CC)[C@@H](C)O)[C@@H](C)CC [Teduglutide]
- EC50 (/GLP2): 1 /GLP2
